Measurements: patent publication US11806555B2, “Methods for treating hair loss disorders” (THE TRUSTEES OF COLUMBIA UNIVERSITY IN THE CITY OF NEW YORK, priority 2010, dated 2023)

Tested on: Granzyme B expression and IFNγ production

| Molecule | IL-15-induced LAK cell Granzyme B expression and IFNγ production |
| --- | --- |
| CC1CCN(C(=O)CC#N)CC1N(C)c1ncnc2[nH]ccc12 (centres unmarked) [tofacitinib] | inhibit |
| tofacitinib | inhibits |
